Measurements reported in patent US12492224B2, “Bicyclic peptide ligands specific for PD-L1” (BicycleTx Limited, priority 2018, dated 2025).

Chains of the proteins cited; added tags and fusions are not shown. Residues count along the entry.
UniProt Q9EP73, 19-290: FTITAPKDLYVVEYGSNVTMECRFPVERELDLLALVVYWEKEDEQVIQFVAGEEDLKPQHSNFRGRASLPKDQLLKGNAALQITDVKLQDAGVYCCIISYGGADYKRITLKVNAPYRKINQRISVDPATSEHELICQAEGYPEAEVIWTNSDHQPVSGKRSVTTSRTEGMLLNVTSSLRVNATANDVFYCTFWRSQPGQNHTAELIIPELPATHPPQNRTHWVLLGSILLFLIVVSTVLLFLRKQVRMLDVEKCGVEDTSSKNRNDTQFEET
UniProt Q9NZQ7, 19-290: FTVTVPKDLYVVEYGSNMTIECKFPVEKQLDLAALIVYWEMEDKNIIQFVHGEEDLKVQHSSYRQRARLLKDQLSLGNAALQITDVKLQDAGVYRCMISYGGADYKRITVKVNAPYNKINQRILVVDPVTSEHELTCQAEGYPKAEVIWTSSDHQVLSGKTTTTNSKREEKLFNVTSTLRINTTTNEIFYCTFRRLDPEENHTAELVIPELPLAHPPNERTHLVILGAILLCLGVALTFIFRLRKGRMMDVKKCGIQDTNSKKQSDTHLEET

What was measured:
mouse PD-L1 [1] = biological target: T1, mouse PD-L1 (Mus musculus, UniProt Q9EP73); assay: PD-L1 Direct Binding Assay (fluorescence polarisation), mouse
Procedure: (§1) Affinity of the peptides of the invention for human PD-L1 (Ki) was determined using a fluorescence polarisation assay, in accordance with the methods disclosed in WO2016/067035. Peptides of the invention with a fluorescent tag (either fluorescein, SIGMA or Alexa Fluor488™, Fisher Scientific) were diluted to 2.5 nM in PBS with 0.01% tween 20 or 50 mM HEPES with 100 mM NaCl and 0.01% tween pH 7.4 (both referred to as assay buffer). This was combined with a titration of protein in the same assay buffer as the peptide to give 1 nM peptide in a total volume of 25 μL in a black walled and bottomed low bind low volume 384 well plates, typically 5 μL assay buffer, 10 μL protein then 10 μL fluorescent peptide. One in two serial dilutions were used to give 12 different concentrations with top concentrations ranging from 500 nM for known high affinity binders to 10 μM for low affinity binders and selectivity assays. Measurements were conducted on a BMG PHERAstar FS equipped with an “FP 485 520 520” optic module which excites at 485 nm and detects parallel and perpendicular emission at 520 nm. The PHERAstar FS was set at 25° C. with 200 flashes per well and a positioning delay of 0.1 second, with each well measured at 5 to 10 minute intervals for 60 minutes. The gain used for analysis was determined for each tracer at the end of the 60 minutes where there was no protein in the well. Data was analysed using Systat Sigmaplot version 12.0. mP values were fit to a user defined quadratic equation to generate a Kd value: f=ymin+(ymax−ymin)/Lig*((x+Lig+Kd)/2−sqrt((((x+Lig+Kd)/2)^2)−(Lig*x))). “Lig” was a defined value of the concentration of tracer used.

human PD-L1 [2] = biological target: T2, human PD-L1 (Homo sapiens, UniProt Q9NZQ7); assay: PD-L1 SPR Binding Assay (Biacore), human; conditions: 25° C.
T2 construct: purchased Sino Biologicals or R&D systems
Procedure: (§2) The protein was desalted to remove uncoupled biotin using spin columns into PBS. For analysis of binding, a Biacore 3000 instrument was used utilizing a CM5 sensor chip (GE Healthcare). Streptavidin was immobilized on the chip using standard amine-coupling chemistry at 25° C. with HBS-N (10 mM HEPES, 0.15 M NaCl, pH 7.4) as the running buffer. The carboxymethyl dextran surface was activated with a 12 min injection of a 1:1 ratio of 0.4 M 1-ethyl-3-(3-dimethylaminopropyl) carbodiimide hydrochloride (EDC)/0.1 M N-hydroxy succinimide (NHS) at a flow rate of 10 μl/min. For capture of streptavidin, protein was diluted to 0.1 mg/ml in 10 mM sodium acetate (pH 4.5) and captured by injecting 70 μl onto the activated chip surface. Residual activated groups were blocked with a 7 min injection of 1 M ethanolamine (pH 8.5). Biotinylated PD-L1 stock was diluted 1:100 in HBS-N and captured on one flow cell at 5 μl/min to a level of 1000-1300 RU. Buffer was changed to PBS/0.05% Tween 20 and a dilution series of the peptides was prepared in this buffer with a final DMSO concentration of 0.5%. The top concentrations were 200 nM or 500 nM with 6 2-fold dilutions. The SPR analysis was run at 25° C. at a flow rate of Flow rate 50 μl/min with 60 seconds association and 400 seconds disassociation. Data were corrected for DMSO excluded volume effects. All data were double-referenced for blank injections and reference surface using standard processing procedures and data processing and kinetic fitting were performed using Scrubber software, version 2.0c (Biologic Software). Data were fitted using mass transport model allowing for mass transport effects where appropriate.

human PD-L1 [3] = biological target: T2, human PD-L1; assay: PD-L1 Direct Binding Assay (fluorescence polarisation), human; conditions: Human Direct Binding Assay, fluorescence polarisation; read-out: Kd
Procedure: as §1

human PD-L1 [4] = biological target: T2, human PD-L1; assay: PD-L1 Competition Binding Assay (fluorescence polarisation); conditions: competition with FI-G-Sar5-ACPDPHNICHLWCA
Procedure: Peptides were diluted to an appropriate concentration in assay buffer as described in the direct binding assay with a maximum of 5% DMSO, then serially diluted 1 in 2. Five μL of diluted peptide was added to the plate followed by 10 μL of human PD-L1, then 10 μL fluorescent peptide added. Measurements were conducted as for the direct binding assay, however the gain was determined prior to the first measurement. Data analysis was in Systat Sigmaplot version 12.0 where the mP values were fit to a user defined cubic equation to generate a Ki value:
f=ymin+(ymax−ymin)/Lig*((Lig*((2*((Klig+Kcomp+Lig+Comp−Prot*c)^2−3*(Kcomp*(Lig−Prot*c)+Klig*(Comp−Prot*c)+Klig*Kcomp))^0.5*COS(ARCCOS((−2*(Klig+Kcomp+Lig+Comp−Prot*c)^3+9*(Klig+Kcomp+Lig+Comp−Prot*c)*(Kcomp*(Lig−Prot*c)+Klig*(Comp−Prot*c)+Klig*Kcomp)−27*(−1*Klig*Kcomp*Prot*c))/(2*((((Klig+Kcomp+Lig+Comp−Prot*c)^2−3*(Kcomp*(Lig−Prot*c)+Klig*(Comp−Prot*c)+Klig*Kcomp))^3)^0.5)))/3))−(Klig+Kcomp+Lig+Comp−Prot*c)))/((3*Klig)+((2*((Klig+Kcomp+Lig+Comp−Prot*c)^2−3*(Kcomp*(Lig−Prot*c)+Klig*(Comp−Prot*c)+Klig*Kcomp))^0.5*COS(ARCCOS((−2*(Klig+Kcomp+Lig+Comp−Prot*c)^3+9*(Klig+Kcomp+Lig+Comp−Prot*c)*(Kcomp*(Lig−Prot*c)+Klig*(Comp−Prot*c)+Klig*Kcomp)−27*(−1*Klig*Kcomp*Prot*c))/(2*((((Klig+Kcomp+Lig+Comp−Prot*c)^2−3*(Kcomp*(Lig−Prot*c)+Klig*(Comp−Prot*c)+Klig*Kcomp))^3)^0.5)))/3))−(Klig+Kcomp+Lig+Comp−Prot*c)))). “Lig”, “KLig” and “Prot” were all defined values relating to: fluorescent peptide concentration, the Kd of the fluorescent peptide and PD-L1 concentration respectively.

PD-1/PD-L1 interaction = biological target: T3, PD-1/PD-L1 interaction (Homo sapiens, UniProt Q9NZQ7); assay: PD-1/PD-L1 Blockade Bioassay (Jurkat PD-1 NFAT-luciferase / CHO-K1 PD-L1); assay type: cell-based; conditions: 6 hours incubation, luciferase fold induction
T3 construct: host or cells: CHO-K1 (human PD-L1) and Jurkat (human PD-1, NFAT-luciferase)
Procedure: Effector Jurkat cells engineered to overexpress human PD-1 and express a luciferase gene under the NFAT response element were purchased from Promega. Target CHO-K1 cells which overexpress human PD-L1 and an engineered cell surface protein designed to activate the Jurkat's T cell receptor in an antigen-independent manner were also purchased from Promega. CHO-K1 cells were plated the day before the assay in Ham's F-12 Medium+10% FBS and were allowed to adhere to the plate. On the day of the assay, media was removed and Jurkat cells were plated with a dose response of test articles in RPMI1640 media with 1% FBS (80 μL total volume per well). […] After 6 hours of incubation at 37° C., 5% CO2, 80 μL of Bio-Glo reagent (Promega) was added to each well and allowed to equilibrate for 10 minutes at room temperature. Luminescence was read on the Clariostar plate reader (BMG LabTech). Fold induction was calculated by dividing the luminescence signal by the average of the background wells (wells with both cell lines and no test article). Data was graphed in Prism and fit to a 4-parameter logistic curve.

mouse PD-L1 [5] = biological target: T1, mouse PD-L1; assay: PD-L1 SPR Binding Assay (Biacore), mouse; conditions: 25° C.
Procedure: as §2, with “Biacore experiments were performed to determine ka) (M^−1s^−1), kd (s^−1), KD (nM) values of monomeric peptides binding to human PD-L1 protein. […] The protein” for “The protein”, “2-fold dilutions. […]” for “2-fold dilutions. The SPR analysis was run at 25° C. at a flow rate of Flow rate 50 μl/min with 60 seconds association and 400 seconds disassociation. Data were corrected for DMSO excluded volume effects. All data were double-referenced for blank injections and reference surface using standard processing procedures and data processing and kinetic fitting were performed using Scrubber software, version 2.0c (Biologic Software). Data were fitted using mass transport model allowing for mass transport effects where appropriate.”

ACDMRCIRIKQSLGMCA[Sar]6[KFI] [BCY7384]
Kd (mouse PD-L1 [1]): 932 nM

ACDPLCLSIKRGLGLCA[Sar]6[KFI] [BCY7377]
Kd (mouse PD-L1 [1]): 114 nM

ACDPLCLSIKRKLGLCA[Sar]6[KFI] [BCY7376]
Kd (mouse PD-L1 [1]): 73 nM

ACDPLCLSIKRQLGLCA[Sar]6[KFI] [BCY7375]
Kd (mouse PD-L1 [1]): 66 nM

ACDPLCLSIKRSLGLCA[Sar]6[KFI] [BCY7374]
Kd (mouse PD-L1 [1]): 51 nM

ACDPLCLSIRASLGLCA[Sar]6[KFI] [BCY7126]
Kd (mouse PD-L1 [1]): 943 nM

ACRDWCHWTFDNGHPCA[Sar]6[KFI] [BCY7385]
Kd (mouse PD-L1 [1]): 58 nM

ACRDWCHWTFSHGHPCA[Sar]6[KFI] [BCY7387]
Kd (mouse PD-L1 [1]): 1180 nM

ACRDWCHWTFSHGTPCA[Sar]6[KFI] [BCY7386]
Kd (mouse PD-L1 [1]): 879 nM

ACRDWCHWTFTHGHPCA[Sar]6[KFI] [BCY7388]
Kd (mouse PD-L1 [1]): 44 nM

ACRDWCHWTFTHSHPCA[Sar]6[KFI] [BCY7389]
Kd (mouse PD-L1 [1]): 132 nM

ACSAEWRNMCVQLDLCA [BCY528]
Kd (human PD-L1 [2]): 291 nM
Kd (human PD-L1 [3]): 162 nM
Ki (human PD-L1 [4]): 112 ± 37.2 nM

ACSASWSNMCVELGLCA [BCY529]
Kd (human PD-L1 [2]): 442 nM
Kd (human PD-L1 [3]): 356 nM
Ki (human PD-L1 [4]): 201 ± 211 nM

ACSDNWLNMCVELGLCA [BCY530]
Kd (human PD-L1 [3]): 106 nM
Ki (human PD-L1 [4]): 106 ± 89.3 nM

ACSESWRNMCVQLNLCA [BCY533]
Kd (human PD-L1 [3]): 19.2 nM
Ki (human PD-L1 [4]): 19.2 ± 4.7 nM

ACSESWSAMCASLGLCA [BCY531]
Kd (human PD-L1 [3]): 311 nM
Ki (human PD-L1 [4]): 118 ± 86.1 nM

ACSESWSNMCKSLGLCA [BCY532]
Kd (human PD-L1 [3]): 176 nM
Ki (human PD-L1 [4]): 243 nM

ACSESWSNMCVSLGLCA [BCY527]
Kd (human PD-L1 [2]): 933 nM
Kd (human PD-L1 [3]): 494 nM
Ki (human PD-L1 [4]): 440 ± 126 nM

ACSPEWKNMCITLNLCA [BCY539]
Kd (human PD-L1 [3]): 116 nM
Ki (human PD-L1 [4]): 116 nM

ACSPEWTNMCVQLHLCA [BCY534]
Kd (human PD-L1 [3]): 65.8 nM
Ki (human PD-L1 [4]): 65.8 ± 4.61 nM

ACSPIWTNTCIQLGLCA [BCY522]
Kd (human PD-L1 [3]): 618 nM
Ki (human PD-L1 [4]): 618 nM

ACSSSWTNMCVQLGLCA [BCY537]
Kd (human PD-L1 [3]): 49.5 nM
Ki (human PD-L1 [4]): 49.5 ± 59.9 nM

ACSTQWNNMCVQLGLCA [BCY535]
Kd (human PD-L1 [3]): 116 nM
Ki (human PD-L1 [4]): 116 ± 39.9 nM

ACSTSWMNLCKQLNLCA [BCY521]
Kd (human PD-L1 [3]): 170 nM
Ki (human PD-L1 [4]): 170 nM

ACSWSWLTMCQKLHLCA [BCY519]
Kd (human PD-L1 [2]): 60.9 nM
Kd (human PD-L1 [3]): 29.6 nM
Ki (human PD-L1 [4]): 29.6 ± 9.2 nM

ACTPNWNAMCLKLNLCA [BCY523]
Kd (human PD-L1 [3]): 362 nM
Ki (human PD-L1 [4]): 362 nM

[Ac]SDKCSAGWLTMCKQLNLCPSH [BCY10467]
Kd (human PD-L1 [2]): 3.1 nM
EC50 (PD-1/PD-L1 interaction): 196 nM

[Ac]SDKCSAGWLTMCKQLNLCPSH-COOH [BCY10939]
Kd (human PD-L1 [2]): 3.39 nM
EC50 (PD-1/PD-L1 interaction): 211 nM

[Ac]SD[HArg]CS[Nle]GWLT[hPhe]CLKL[Aib]LCPSH [BCY10959]
Kd (human PD-L1 [2]): 5.54 nM
EC50 (PD-1/PD-L1 interaction): 120 nM

[PYA][B-Ala][Sar]10C[HArg]DWCHWTFSHGHPC [BCY8938]
Kd (mouse PD-L1 [5]): 117 nM
